Data as given in patent US20240261333A1 (published 2024).
Values belong to the binder of their own block, whether it stands above or below them.

Columns and labels:
[1] = biological target: T1, PSMA1 (UniProt P25786 1-263); experiment: co-IP, anti-FLAG, lysate of C-FLAG B3GNT2 cells, mass spectrometry
T1 construct: also called NP_002777.1 (+1)

[2] = biological target: T2, ALDOA (UniProt P04075-2 1-418, limits assumed); experiment: as above
T2 construct: also called NP_001230106.1 (+1)
T2 sequence (looked up): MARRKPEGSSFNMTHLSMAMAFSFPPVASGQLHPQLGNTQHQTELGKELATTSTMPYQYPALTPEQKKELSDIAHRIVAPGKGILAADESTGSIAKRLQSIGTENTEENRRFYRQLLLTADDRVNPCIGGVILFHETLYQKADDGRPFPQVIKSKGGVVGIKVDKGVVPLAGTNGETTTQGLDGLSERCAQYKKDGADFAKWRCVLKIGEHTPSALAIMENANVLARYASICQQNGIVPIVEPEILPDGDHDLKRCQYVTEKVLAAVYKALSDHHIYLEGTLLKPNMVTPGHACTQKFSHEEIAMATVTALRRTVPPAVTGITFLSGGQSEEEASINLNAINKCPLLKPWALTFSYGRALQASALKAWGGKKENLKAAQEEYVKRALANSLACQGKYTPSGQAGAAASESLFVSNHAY

[3] = biological target: T3, SEC16A (UniProt O15027-4 1-2332, limits assumed); experiment: as above
T3 construct: also called NP_001263347.1 (+15)

[4] = biological target: T4, PSMA4 (UniProt P25789 1-261); experiment: as above
T4 construct: also called NP_002780.1
T4 sequence (looked up): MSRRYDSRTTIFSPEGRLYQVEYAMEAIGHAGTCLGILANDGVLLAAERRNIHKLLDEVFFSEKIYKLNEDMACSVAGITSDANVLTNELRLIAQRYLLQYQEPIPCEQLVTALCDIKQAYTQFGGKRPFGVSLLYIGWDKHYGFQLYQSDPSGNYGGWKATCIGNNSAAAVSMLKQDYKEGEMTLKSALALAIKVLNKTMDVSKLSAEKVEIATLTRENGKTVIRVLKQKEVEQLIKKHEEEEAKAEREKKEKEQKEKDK

[5] = biological target: T5, HLA-A (UniProt P04439 25-365, limits assumed); experiment: as above
T5 construct: also called XP_024308303.1

[6] = biological target: T6, PRR4 (UniProt Q16378 17-134); experiment: as above
T6 construct: also called NP_009175.2
T6 sequence (looked up): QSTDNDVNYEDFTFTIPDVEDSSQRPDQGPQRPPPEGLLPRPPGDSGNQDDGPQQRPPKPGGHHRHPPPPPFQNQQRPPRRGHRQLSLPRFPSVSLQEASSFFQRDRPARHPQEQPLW

[7] = biological target: T7, SRSF7 (UniProt Q16629 1-238); experiment: as above
T7 construct: also called NP_001026854.1 (+1)
T7 sequence (looked up): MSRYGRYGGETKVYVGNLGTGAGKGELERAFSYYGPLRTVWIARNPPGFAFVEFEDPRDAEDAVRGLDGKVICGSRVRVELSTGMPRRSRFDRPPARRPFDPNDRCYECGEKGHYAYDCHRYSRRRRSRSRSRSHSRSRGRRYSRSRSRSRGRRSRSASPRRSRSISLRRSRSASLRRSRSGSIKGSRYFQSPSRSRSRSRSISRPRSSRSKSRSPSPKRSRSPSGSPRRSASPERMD

[8] = biological target: T8, CEP170 (UniProt Q5SW79 1-1584, limits assumed); experiment: co-IP, anti-FLAG, lysate of N-FLAG B3GNT2 cells, mass spectrometry
T8 construct: also called XP_016858423.1

[9] = biological target: T9, LRP2 (UniProt P98164 26-4655); experiment: as above
T9 construct: also called NP_004516.2

[10] = biological target: T10, MAP1B (UniProt P46821 2-2468, limits assumed); experiment: as above
T10 construct: also called NP_005900.2

[11] = biological target: T11, RBMX (UniProt P38159 1-391); experiment: as above
T11 construct: also called NP_002130.2

[12] = biological target: T12, GNAS (UniProt Q5JWF2 1-1037, limits assumed); experiment: as above
T12 construct: The 111 kDa entry is the extra-large form of GNAS; also called NP_536350.2 (+3)

[13] = biological target: ARPC2 (UniProt O15144 1-300); experiment: as above
[14] = biological target: T13, PGK1 (UniProt P00558 2-417); experiment: as above
T13 construct: also called NP_000282.1
T13 sequence (looked up): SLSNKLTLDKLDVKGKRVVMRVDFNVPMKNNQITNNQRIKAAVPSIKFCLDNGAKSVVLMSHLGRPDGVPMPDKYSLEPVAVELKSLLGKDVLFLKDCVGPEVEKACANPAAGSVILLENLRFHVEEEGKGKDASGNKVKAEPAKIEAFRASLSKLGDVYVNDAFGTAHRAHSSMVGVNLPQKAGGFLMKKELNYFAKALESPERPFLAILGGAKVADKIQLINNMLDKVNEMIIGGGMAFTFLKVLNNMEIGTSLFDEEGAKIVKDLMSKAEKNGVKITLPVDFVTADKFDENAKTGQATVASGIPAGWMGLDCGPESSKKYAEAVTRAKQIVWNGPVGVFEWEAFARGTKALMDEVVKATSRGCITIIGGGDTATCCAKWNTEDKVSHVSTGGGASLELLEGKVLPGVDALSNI

[15] = biological target: T14, TM9SF3 (UniProt Q9HD45 29-589); experiment: as above
T14 construct: also called NP_064508.3 (+1)
T14 sequence (looked up): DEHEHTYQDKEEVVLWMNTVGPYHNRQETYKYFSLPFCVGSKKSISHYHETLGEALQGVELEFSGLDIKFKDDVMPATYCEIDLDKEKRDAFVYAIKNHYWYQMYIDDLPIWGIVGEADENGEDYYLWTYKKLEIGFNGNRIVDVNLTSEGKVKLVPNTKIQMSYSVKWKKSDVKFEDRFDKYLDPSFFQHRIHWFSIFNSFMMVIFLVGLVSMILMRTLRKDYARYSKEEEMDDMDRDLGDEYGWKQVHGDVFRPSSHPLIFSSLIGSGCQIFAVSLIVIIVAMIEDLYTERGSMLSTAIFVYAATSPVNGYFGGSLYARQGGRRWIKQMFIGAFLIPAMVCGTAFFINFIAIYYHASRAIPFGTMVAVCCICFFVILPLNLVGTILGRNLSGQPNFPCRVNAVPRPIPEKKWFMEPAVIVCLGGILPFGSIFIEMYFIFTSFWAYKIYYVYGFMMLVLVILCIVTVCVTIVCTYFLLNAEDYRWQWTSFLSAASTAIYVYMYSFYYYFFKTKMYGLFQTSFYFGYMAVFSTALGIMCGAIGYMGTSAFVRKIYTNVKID

[16] = biological target: T15, MYO1D (UniProt O94832 2-1006); experiment: as above
T15 construct: also called NP_056009.1 (+1)
T15 sequence (looked up): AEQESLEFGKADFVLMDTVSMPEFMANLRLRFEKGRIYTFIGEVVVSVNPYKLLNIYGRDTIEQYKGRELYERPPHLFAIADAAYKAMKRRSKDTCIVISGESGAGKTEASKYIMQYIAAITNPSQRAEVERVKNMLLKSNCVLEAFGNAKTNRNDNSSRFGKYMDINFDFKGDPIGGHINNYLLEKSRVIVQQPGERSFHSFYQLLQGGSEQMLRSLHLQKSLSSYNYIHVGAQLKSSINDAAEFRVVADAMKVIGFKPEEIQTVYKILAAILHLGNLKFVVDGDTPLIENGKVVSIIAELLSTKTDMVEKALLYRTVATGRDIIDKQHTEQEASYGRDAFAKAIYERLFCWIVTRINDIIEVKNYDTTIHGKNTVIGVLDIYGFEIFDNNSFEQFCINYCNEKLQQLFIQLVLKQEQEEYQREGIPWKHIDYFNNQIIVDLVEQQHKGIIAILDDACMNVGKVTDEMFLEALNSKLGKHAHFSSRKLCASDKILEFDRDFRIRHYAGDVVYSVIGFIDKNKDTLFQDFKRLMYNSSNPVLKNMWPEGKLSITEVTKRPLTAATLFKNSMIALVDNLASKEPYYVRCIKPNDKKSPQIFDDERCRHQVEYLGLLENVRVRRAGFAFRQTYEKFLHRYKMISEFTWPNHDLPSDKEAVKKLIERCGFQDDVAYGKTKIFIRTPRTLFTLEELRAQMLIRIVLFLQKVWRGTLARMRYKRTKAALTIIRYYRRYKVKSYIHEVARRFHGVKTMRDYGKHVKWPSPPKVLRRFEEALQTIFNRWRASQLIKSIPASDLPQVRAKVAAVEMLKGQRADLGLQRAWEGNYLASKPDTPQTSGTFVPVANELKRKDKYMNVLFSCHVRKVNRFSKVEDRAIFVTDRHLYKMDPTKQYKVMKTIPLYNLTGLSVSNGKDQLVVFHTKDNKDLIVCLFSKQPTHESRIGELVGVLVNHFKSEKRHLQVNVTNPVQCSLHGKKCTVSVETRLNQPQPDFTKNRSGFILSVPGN

[17] = biological target: T16, NCL (UniProt P19338 2-710); experiment: as above
T16 construct: also called NP_005372.2

[18] = biological target: T17, ABCF1 (UniProt Q8NE71 1-845); experiment: as above
T17 construct: also called NP_001020262.1 (+1)

[19] = biological target: T18, TNC (UniProt P24821 23-2201, limits assumed); experiment: as above
T18 construct: also called NP_002151.2 (+4)

[20] = biological target: T19, LAMB1 (UniProt P07942 22-1786); experiment: as above
T19 construct: also called NP_002282.2 (+1)

[21] = biological target: T5, HLA-A; experiment: as above
[22] = biological target: T20, PPIB (UniProt P23284 34-216); experiment: as above
T20 construct: also called NP_000933.1

[23] = biological target: T21, RNASE1 (UniProt P07998 29-156); experiment: as above
T21 construct: also called NP_002924.1
T21 sequence (looked up): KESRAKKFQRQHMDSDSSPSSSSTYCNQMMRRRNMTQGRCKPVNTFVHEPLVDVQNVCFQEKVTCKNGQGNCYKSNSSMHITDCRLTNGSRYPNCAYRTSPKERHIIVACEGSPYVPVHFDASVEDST

- co-IP/MS count [1]: 0
- co-IP/MS count [2]: 0
- co-IP/MS count [3]: 0
- co-IP/MS count [4]: 0
- co-IP/MS count [5]: 4
- co-IP/MS count [6]: 0
- co-IP/MS count [7]: 0
B1: C-terminal FLAG tagged B3GNT2 (enzyme, human, UniProt Q9NY97 1-397, looked up)
chain: MSVGRRRIKLLGILMMANVFIYFIMEVSKSSSQEKNGKGEVIIPKEKFWKISTPPEAYWNREQEKLNRQYNPILSMLTNQTGEAGRLSNISHLNYCEPDLRVTSVVTGFNNLPDRFKDFLLYLRCRNYSLLIDQPDKCAKKPFLLLAIKSLTPHFARRQAIRESWGQESNAGNQTVVRVFLLGQTPPEDNHPDLSDMLKFESEKHQDILMWNYRDTFFNLSLKEVLFLRWVSTSCPDTEFVFKGDDDVFVNTHHILNYLNSLSKTKAKDLFIGDVIHNAGPHRDKKLKYYIPEVVYSGLYPPYAGGGGFLYSGHLALRLYHITDQVHLYPIDDVYTGMCLQKLGLVPEKHKGFRTFDIEEKNKNNICSYVDLMLVHSRKPQEMIDIWSQLQSAHLKC
notes: Bait of the co-IP; overexpressed from a synthesized ORF and pulled down from cell lysate with mouse anti-FLAG; also called C-FLAG B3GNT2; C-term flag; not shown: FLAG tag at the C-terminus

- co-IP/MS count [8]: 0
- co-IP/MS count [9]: 0
- co-IP/MS count [10]: 0
- co-IP/MS count [11]: 0
- co-IP/MS count [12]: 0
- co-IP/MS count [13]: 0
- co-IP/MS count [14]: 0
- co-IP/MS count [15]: 0
- co-IP/MS count [16]: 0
- co-IP/MS count [17]: 0
- co-IP/MS count [18]: 0
- co-IP/MS count [19]: 0
- co-IP/MS count [20]: 0
- co-IP/MS count [21]: 6
- co-IP/MS count [22]: 0
- co-IP/MS count [23]: 0
B2: N-terminal FLAG tagged B3GNT2 (enzyme, human, UniProt Q9NY97 1-397, looked up)
chain: B1 chain
notes: Bait of the co-IP; overexpressed from a synthesized ORF and pulled down from cell lysate with mouse anti-FLAG; also called N-FLAG B3GNT2; N-term FLAG; not shown: FLAG tag at the N-terminus
